According to publication PMC6592956, “Characterization of Porcine Hepatic and Intestinal Drug Metabolizing CYP450: Comparison with Human Orthologues from A Quantitative, Activity and Selectivity Perspective” (Scientific Reports, 2019):

Key:
CYP3A [1] = tested on: T1, CYP3A; experiment: Group mean of log10 Km (Km in µM) for porcine hepatic microsomes from 8 male pigs, probe metabolism at 37 °C, LC-MS/MS.; assay type: biochemical, pig liver microsomes; details: n = 8
T1 construct: native enzymes in hepatic or intestinal microsomes; probe reaction midazolam 1-hydroxylation

CYP3A [2] = tested on: T1, CYP3A; experiment: Group mean of log10 Km (Km in µM) for porcine hepatic microsomes from 8 female pigs, probe metabolism at 37 °C, LC-MS/MS.; assay type: biochemical, pig liver microsomes; details: n = 8
CYP2E = experiment: Incubation with inhibitors: CZ-hydroxylation in porcine hepatic microsomes; assay type: in vitro ADME, conventional pig; details: CZ 50 µM; inhibitors SFZ 0.5, α-NFV 0.1 (1 µM), QND 0.1, KET 0.3, DDC 20, 8-MPS 1 µM; mean (SD) of 3
CYP2D = molecular target: T2, CYP2D (Sus scrofa, UniProt O46658); experiment: Incubation with inhibitors: DXM-O-demethylation in porcine hepatic microsomes; assay type: in vitro ADME, conventional pig; details: DXM 10 µM; inhibitors SFZ 0.5, α-NFV 0.1 (1 µM), QND 0.1, KET 0.3, DDC 20, 8-MPS 1 µM; mean (SD) of 3
T2 construct: from tissue; host or cells: pig liver microsomes
T2 sequence (O46658 1-500): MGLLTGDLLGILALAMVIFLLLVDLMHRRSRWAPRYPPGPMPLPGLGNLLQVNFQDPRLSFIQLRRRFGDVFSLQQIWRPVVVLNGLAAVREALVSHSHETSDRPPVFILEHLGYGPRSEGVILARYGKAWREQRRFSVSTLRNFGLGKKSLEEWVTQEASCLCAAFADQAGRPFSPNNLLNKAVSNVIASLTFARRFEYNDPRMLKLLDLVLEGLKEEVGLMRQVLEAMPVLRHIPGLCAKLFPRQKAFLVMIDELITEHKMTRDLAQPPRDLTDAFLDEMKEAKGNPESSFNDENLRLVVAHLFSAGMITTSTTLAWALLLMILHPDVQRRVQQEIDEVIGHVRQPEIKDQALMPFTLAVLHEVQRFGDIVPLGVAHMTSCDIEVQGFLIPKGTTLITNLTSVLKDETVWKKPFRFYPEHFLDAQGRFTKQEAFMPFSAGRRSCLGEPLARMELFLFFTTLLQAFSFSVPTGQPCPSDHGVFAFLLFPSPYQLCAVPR

CYP2A = experiment: Incubation with inhibitors: CM-hydroxylation in porcine hepatic microsomes; assay type: in vitro ADME, conventional pig; details: CM 1 µM; inhibitors SFZ 0.5, α-NFV 0.1 (1 µM), QND 0.1, KET 0.3, DDC 20, 8-MPS 1 µM; mean (SD) of 3
CYP2C = details: TB 200 µM; inhibitors SFZ 0.5, α-NFV 0.1 (1 µM), QND 0.1, KET 0.3, DDC 20, 8-MPS 1 µM; mean (SD) of 3
CYP3A [3] = experiment: Incubation with inhibitors: MDZ-hydroxylation in porcine hepatic microsomes; assay type: in vitro ADME, conventional pig; details: MDZ 20 µM; inhibitors SFZ 0.5, α-NFV 0.1 (1 µM), QND 0.1, KET 0.3, DDC 20, 8-MPS 1 µM; mean (SD) of 3
CYP1A = experiment: Incubation with inhibitors: PH-O-deethylation in porcine hepatic microsomes; assay type: in vitro ADME, conventional pig; details: PH 20 µM; inhibitors SFZ 0.5, α-NFV 0.1 (1 µM), QND 0.1, KET 0.3, DDC 20, 8-MPS 1 µM; mean (SD) of 3

Structure (SMILES): Cc1ncc2n1-c1ccc(Cl)cc1C(c1ccccc1F)=NC2 [MDZ, midazolam]
- log_Km, male (CYP3A [1]): 1,3136
- log_Km, female (CYP3A [2]): 1,3339

Structure (SMILES): C=C[C@H]1C[N@@]2CC[C@H]1C[C@@H]2[C@@H](O)c1ccnc2ccc(OC)cc12 [Quinidine, quinidine]
- Ratio of residual activity (substrate + inhibitor versus substrate only), CYP2E CZ (CYP2E): 1.07(0.044)
- Ratio of residual activity (substrate + inhibitor versus substrate only), CYP2D DXM (CYP2D): 0.98 (0.080)
- Ratio of residual activity (substrate + inhibitor versus substrate only), CYP2A CM (CYP2A): 1.06 (0.072)
- Ratio of residual activity (substrate + inhibitor versus substrate only), CYP2C TB (CYP2C): 0.97 (0.052)
- Ratio of residual activity (substrate + inhibitor versus substrate only), CYP3A MDZ (CYP3A [3]): 1.26 (0.075)
- Ratio of residual activity (substrate + inhibitor versus substrate only), CYP1A PH (CYP1A): 1.15 (0.016)
